In ChEMBL document CHEMBL4000227, “Structure activity relationships of benzylproline-derived inhibitors of the glutamine transporter ASCT2” (Bioorg Med Chem Lett, 2017):

Biological target: T1, Amino acid transporter (Rattus norvegicus, UniProt Q9Z1J7)
T1 sequence (Q9Z1J7 whole entry): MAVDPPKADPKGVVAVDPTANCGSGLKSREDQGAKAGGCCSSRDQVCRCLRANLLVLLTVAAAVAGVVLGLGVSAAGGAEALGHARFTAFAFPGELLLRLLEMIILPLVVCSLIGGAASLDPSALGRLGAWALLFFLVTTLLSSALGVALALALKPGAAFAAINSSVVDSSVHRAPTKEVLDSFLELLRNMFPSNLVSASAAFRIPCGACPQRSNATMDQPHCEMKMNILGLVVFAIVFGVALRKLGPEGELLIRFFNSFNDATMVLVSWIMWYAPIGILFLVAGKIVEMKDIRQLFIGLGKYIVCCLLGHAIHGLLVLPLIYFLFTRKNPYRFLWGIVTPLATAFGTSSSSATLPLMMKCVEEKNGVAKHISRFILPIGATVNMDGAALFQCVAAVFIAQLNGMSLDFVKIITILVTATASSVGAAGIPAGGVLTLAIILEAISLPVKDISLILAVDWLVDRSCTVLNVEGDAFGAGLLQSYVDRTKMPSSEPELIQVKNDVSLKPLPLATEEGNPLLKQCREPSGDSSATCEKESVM
Assay: Inhibition of rat ASCT2 expressed in HEK293 cells assessed as inhibition of L-alanine/Na+ exchange by measuring reduction in SCN anion inward current in presence of NaCl and NaSCN by whole cell patch-clamp method
Type: cell-based
Details: read-out: Ki(app)
Outline: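 Whole-cell currents from HEK293T cells transiently expressing rat ASCT2, held at 0 mV; bath 140 mM NaCl, pipette 135 mM NaSCN plus 10 mM alanine. Outward currents recorded over a range of compound concentrations, normalized to the response at 1 mM, and fitted as dose-response relationships to obtain apparent affinity.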

| Ki [µM] | SMILES |
| --- | --- |
| 25 | O=C(O)C1C[C@@H](Cc2ccccc2Br)CN1 (single isomer, unassigned) |
| 77 | O=C(O)C1C[C@@H](Cc2cccc(C(F)(F)F)c2)CN1 (single isomer, unassigned) |
| 373 | O=C(O)C1C[C@@H](Cc2ccccc2[N+](=O)[O-])CN1 (single isomer, unassigned) |
| 360 | O=C(O)C1C[C@@H](Cc2ccc(C(F)(F)F)cc2)CN1 (single isomer, unassigned) |
